Ki data for 1 compound are collected here from ChEMBL document CHEMBL4229498 (Bioorg Med Chem, 2018).

Amino acid sequences for entries named in this document (tags omitted).
UniProt P21554, whole entry: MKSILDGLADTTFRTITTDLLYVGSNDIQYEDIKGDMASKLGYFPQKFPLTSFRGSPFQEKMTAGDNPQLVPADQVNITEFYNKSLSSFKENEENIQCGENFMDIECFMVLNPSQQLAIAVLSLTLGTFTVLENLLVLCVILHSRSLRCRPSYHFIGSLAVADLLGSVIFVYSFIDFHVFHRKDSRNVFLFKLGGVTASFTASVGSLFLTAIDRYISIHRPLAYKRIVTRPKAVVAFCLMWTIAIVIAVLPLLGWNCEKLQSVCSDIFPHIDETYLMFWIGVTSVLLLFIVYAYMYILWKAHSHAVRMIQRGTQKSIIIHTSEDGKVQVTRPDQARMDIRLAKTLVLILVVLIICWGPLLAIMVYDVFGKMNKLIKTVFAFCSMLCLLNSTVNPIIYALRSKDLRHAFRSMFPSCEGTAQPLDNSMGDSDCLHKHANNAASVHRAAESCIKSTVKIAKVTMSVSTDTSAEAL

In the test the target is Cannabinoid receptor 1 (Homo sapiens, UniProt P21554). The experiment in a line: Displacement of [3H]-CP55940 from human CB1 receptor expressed in CHO cell membranes after 1 hr by liquid scintillation spectrometry.

What is called Ki is a measure of affinity in units of concentration, obtained from inhibition or displacement. `O=C(C1CCSCC1)N1CCN(c2ncnc3c2nc(-c2ccccc2Cl)n3-c2ccc(Cl)cc2)CC1`: the inhibition constant Ki came to 2 nM.
